Test: Pharmacokinetic study in rats after oral administration of PbR extract
Assay type: in vivo, rat
Details: after oral administration of PbR at a dose of 0.5 g/100 g

For echinacoside, which “detection in rat plasma” value is on record?
The value was “neither of these were detected”.
